Results as given in patent publication US6177409A, “Method for the site specific synthesis of novel 3-hydroxypyridin-4(1H)ons derivatives from aminomonosaccharides or aminoitols, products obtained by this method and their applications” (priority 1996, dated 2001).

How the values were obtained:
[1] = test system: mice; assay: in vivo; conditions: mouse
Procedure: (§1) The samples are put in a solution either in water or in a mixture of water-DMSO (3:2; v/v) so as to obtain solutions of varying concentrations,either lower than or equal to 130 g·L^-1; the volumes injected are calculated on the basis of 0.2 mL for a mouse body weight of 20 g.
(§2) The toxicity is evaluated starting from aqueous solutions, either buffered or not with NaH2 PO4 or else with Na2 HPO4, or else after addition of a stoichiometric quantity of NaHCO3.
(§3) The 2-methyl-3-hydroxypyridine-4(1H)-one derivatives of glycerol (14), of xylitol (17), of mono-acetone xylose (12) and of solketal (11) were injected by I. V. route.
(§4) The 2-methyl-3-hydroxypyridine-4(1H)-one compound of diacetone xylitol (10) was injected by I. P. route.

[2] = in vivo; conditions: mouse, iv, LD50 ± SD
Procedure: as §1, §2, §3, §4

Structure (SMILES)	Mortality (number of mice) ([1]; ip, 650 mg/kg, pH 7)	Mortality times ([1]; ip, 650 mg/kg, pH 7)	Mortality (number of mice) ([1]; iv, 325 mg/kg, pH 2.5)	Mortality (number of mice) ([1]; iv, 525 mg/kg, pH 4)	Mortality (number of mice) ([1]; iv, 650 mg/kg, pH 2.1)	Mortality times ([1]; iv, 650 mg/kg, pH 2.1)	Mortality (number of mice) ([1]; iv, 650 mg/kg, pH 3)	Mortality times ([1]; iv, 650 mg/kg, pH 3)	Mortality (number of mice) ([1]; iv, 650 mg/kg, pH 4)	Mortality (number of mice) ([1]; iv, 850 mg/kg, pH 4)	Mortality (number of mice) ([1]; iv, 1300 mg/kg, pH 2)	Mortality times ([1]; iv, 1300 mg/kg, pH 2)	Mortality (number of mice) ([1]; iv, 1300 mg/kg, pH 4)	LD50 [2] [mg/kg]	LD50 ± SD ([1]; iv) [mg/kg]
Cc1c(O)c(=O)ccn1C [Compound L1, 1.2-dimethyl-3-hydroxypyridine-4(1H)-one, reference compound]	5	5 h 45, 6 h, 5 h, 4 h, 5 h 45	0	0	5	54 sec., 30 sec., 20 sec., 25 sec., 26 sec.	3	50 sec., 30 sec., 35 sec.	2	5	3	20 sec., 10 sec., 10 sec.	5		
Cc1c(O)c(=O)ccn1C [L1 chlorohydrate, chlorohydrate of 1.2-dimethyl-3-hydroxypyridine-4(1H)-one, reference compound]														783 ± 50	868 ± 86
